In PubChem BioAssay AID686978 (National Center for Advancing Translational Sciences (NCATS), 2013):
Where “and” joins values, the source holds several entries; their conditions need not be identical. Equal entries are not always repeated. This is a selection; strong and weak results do not stand in their true shares. Inconclusive results are not listed. Calls of active or inactive are those of the source. The call rests on the fitted dose curve; in most records, active means well fitted inhibition curve with a large enough effect; inconclusive means small, poorly fitted or top-dose-only effect; inactive means flat fitted curve, though single readings scatter.

Test: qHTS for Inhibitors of human tyrosyl-DNA phosphodiesterase 1 (TDP1): qHTS in cells in absence of CPT; further: nearly all actives have a fitted effect of over 55% in size
Details: DT40 Tdp1-/- hTDP1 cells, no CPT, ATP luminescence, 48 h
Potency means the concentration at half of the fitted maximal effect.

Compound	Potency
COc1cc(/C=N/NC(=O)c2ccc(O)cc2)ccc1Oc1ccc([N+](=O)[O-])cn1	active: 20.6 µM
Nc1nccc(NCCSCc2ccccc2)n1	active: 20.6 µM
CC[n+]1c(/C=C/N(C)c2ccccc2)oc2ccc(Cl)cc21	active: 2.59 µM
CC(=O)C1=NN(c2ccccc2)C(c2ccc3c(c2)OCO3)N1c1ccc(N2CCOCC2)cc1 (stereo not drawn)	active: 16.4 µM
O=c1[nH]c(=O)n(C(c2ccccc2)(c2ccccc2)c2ccccc2)cc1N(CCO)CCO	active: 11.6 µM
COc1ccc(Nc2nc(Nc3ccc(OC)cc3)nc(SC3=NCCS3)n2)cc1	active: 25.9 µM
CCN(CC)CCCC(C)Nc1c2ccc(Cl)cc2nc2ccc(OC)cc12 (stereo not drawn)	active: 4.47 µM and active: 2.31 µM
CC[n+]1c(/C=C/N(C)c2ccccc2)oc2ccccc21	active: 0.651 µM
CC[n+]1c(/C=C/N(C)c2ccccc2)oc2ccc(F)cc21	active: 4.11 µM
O=C(NCCc1ccccc1)c1oc2ccccc2c1COc1ccccc1	active: 20.6 µM
CN(Cc1cnc2nc(N)nc(N)c2n1)c1ccc(C(=O)N[C@@H](CCC(=O)O)C(=O)O)cc1	active: 10.6 nM and active: 10.3 nM
Cc1ccc(-c2csc(Nc3ccccc3)[n+]2CCc2ccccc2)cc1	active: 16.4 µM
CN(Cc1cnc2nc(N)nc(N)c2n1)c1ccc(C(=O)NC(CCC(=O)O)C(=O)O)cc1 (stereo not drawn)	active: 46.1 nM and active: 29.1 nM
